The assay addresses T1, cyclin D1 (endogenous and ectopic) of S24, S24/D1, S24/V and V3 cells (UniProt P25322).
T1 construct: also called endogenous and ectopic D1
Description: GST pull-down on glutathione-Sepharose, anti-cyclin D1 immunoblot. How it is done: Cyclin D1 pull-down assays were performed as described previously (Chen et al., 1996, Cancer Res. 56:3168-3172 (Erratum, 56:4074)). Briefly, cells were lysed in binding buffer (20 mM Tris-HCl pH7.4, 1 mM EDTA, 25 mM NaCl, 10% glycerol, 0.01% Nonidet P-40, 1 mM each of DTT, Na3VO4 and PMSF, 2 μg/ml each of aprotinin, leupeptin, antipain, pepstatin A). 500 μg of the lysates were incubated with 15 μg of GST-SSeCKS2 or GST prebound to glutathione-Sepharose beads for 3 h at 40° C. on a rotating wheel. After 4 washes in binding buffer, the beads were boiled in protein loading dye, and the proteins analyzed by immunoblotting using anti-cyclin D1 antibody.
SSeCKS binds G1 phase cyclins in vitro via tandem CY motifs. A so-called cyclin-binding (CY) motif which facilitates the binding of cyclins to several cell cycle components such as p21 (Chen et al., 1996, Mol. Cell. Biol. 16:4673-4682). SSeCKS encodes two closely spaced potential CY motifs, KKLFSxxxxKKLSG (K/RK/R followed by two nonpolar residues, with the first usually Leu). This domain also contains two major in vivo PKC sites, Ser507 and Ser515 (Lin et al., 1996, J. Biol. Chem. 271:28430-28438; Chapline et al., 1996, J. Biol. Chem. 271:6417-6422). It was tested whether a GST fusion protein containing the SSeCKS CY motifs (“SSeCKS-2”) could bind G1 phase cyclins in an in vitro pulldown assay. […]

Protein sequences, listed by entry. Tags and fused reporters are not part of them.
UniProt P25322, whole entry: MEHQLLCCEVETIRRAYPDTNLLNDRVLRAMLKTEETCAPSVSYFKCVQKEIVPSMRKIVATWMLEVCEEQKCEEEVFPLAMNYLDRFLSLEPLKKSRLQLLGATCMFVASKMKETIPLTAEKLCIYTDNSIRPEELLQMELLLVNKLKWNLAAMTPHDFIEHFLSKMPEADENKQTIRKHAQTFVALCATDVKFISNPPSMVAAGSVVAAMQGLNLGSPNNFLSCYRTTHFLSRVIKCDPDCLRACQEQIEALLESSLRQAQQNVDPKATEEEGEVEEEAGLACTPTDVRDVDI

B1: GST protein alone (other, UniProt P08515 1-218, looked up)
chain: MSPILGYWKIKGLVQPTRLLLEYLEEKYEEHLYERDEGDKWRNKKFELGLEFPNLPYYIDGDVKLTQSMAIIRYIADKHNMLGGCPKERAEISMLEGAVLDIRYGVSRIAYSKDFETLKVDFLSKLPEMLKMFEDRLCHKTYLNGDHVTHPDFMLYDALDVVLYMDPMCLDAFPKLVCFKKRIEAIPQIDKYLKSSKYIAWPLQGWQATFGGGDHPPK
notes: Control protein; also called GST alone
For the molecule B1, the binding result is “no binding (tested: 15 µg of GST per 500 µg of lysate)”.
